Results reported in patent US8562947B2, “Oxidized avidin with high residency time in the treated tissues” (Sigma-Tau Industrie Farmaceutiche Riunite S.p.A., priority 2007, dated 2013).

Conditions: mouse, in vivo

Substance: WTavidin: wild type avidin, glycoprotein of about 68 kDa present in egg white, high affinity for biotin [reference compound]
- residence in the brain: less than 2.08±1.03 % ID/100 mg of tissue
